Experimental data from patent US12011450B2, “Polyethylene glycol-conjugated glucocorticoid prodrugs and compositions and methods thereof” (Board of Regents of the University of Nebraska, priority 2015, dated 2024).

System: NZB/W F1 female mice with severe nephritis

## C[C@@H]1C[C@H]2[C@@H]3CCC4=CC(=O)C=C[C@]4(C)[C@@]3(F)[C@@H](O)C[C@]2(C)[C@@]1(O)C(=O)COP(=O)([O-])[O-].[Na+].[Na+] [Dex, dexamethasone 21-phosphate disodium]
8-week time point
  mice in which albuminuria was detected: 82%
After 2-month treatment
  survival: 80% and ~82%
Over the experimental time course
  mice in which albuminuria intensified: 36%
Prior to the end of the experiment
  mice euthanized due to severe nephritis: ~18%

Where “and” joins values, the source holds several entries; their conditions need not be identical. Identical values can stand only once.
